In this test the target is T1, human GLP-1 R (Homo sapiens, UniProt P43220).
T1 construct: expressed in transfected cells
Nature of the test: Human GLP-1 receptor (GLP-1 R) activity assay, cAMP induction (AlphaScreen cAMP kit). It counts as cell-based. The procedure:
Human GIP Receptor (GIP R) and GLP-1 Receptor (GLP-1 R) Activity Assay
In vitro effects of peptide conjugates of the invention were assessed by measuring the induction of cAMP following stimulation of the respective receptor by GIP, GLP1 or analogues of these, as outlined in the invention, using the AlphaSceen® cAMP kit from Perkin-Elmer according to instructions. Briefly. HEK293 cells expressing the human GIP R or GLP-1 R (stable cell lines generated through transfection of the cDNA for human GIP R or GLP-1 and selection of stable clones) were seeded at 30,000 cells/well in 96-well microtiter plates coated with 0.01% poly-L-lysine, and grown for 1 day in culture in 200 μl growth medium (DMEM, 10% FCS, Penicillin (100 IU/ml), Streptomycin (100 μg/ml)). On the day of analysis, growth medium was removed and the cells were washed once with […] Tyrode's buffer (Tyrode's Salts (9.6 g/1), 10 mM HEPES, pH 7.4). […] The Assay buffer was removed and cells are lysed in 80 μl Lysis buffer (0.1% w/v BSA, 5 mM HEPES, 0.3% v/v Tween-20) per well. […] The plates were mixed and incubated in the dark for an hour at room temperature before measuring using an Envision™ plate reader (Perkin-Elmer).
On the technique in general: In Alpha technology, singlet oxygen from a donor bead excites a nearby acceptor bead.

Amino acid sequences for entries named in this document (tags omitted). Residues count along the entry.
UniProt P43220, 24-463: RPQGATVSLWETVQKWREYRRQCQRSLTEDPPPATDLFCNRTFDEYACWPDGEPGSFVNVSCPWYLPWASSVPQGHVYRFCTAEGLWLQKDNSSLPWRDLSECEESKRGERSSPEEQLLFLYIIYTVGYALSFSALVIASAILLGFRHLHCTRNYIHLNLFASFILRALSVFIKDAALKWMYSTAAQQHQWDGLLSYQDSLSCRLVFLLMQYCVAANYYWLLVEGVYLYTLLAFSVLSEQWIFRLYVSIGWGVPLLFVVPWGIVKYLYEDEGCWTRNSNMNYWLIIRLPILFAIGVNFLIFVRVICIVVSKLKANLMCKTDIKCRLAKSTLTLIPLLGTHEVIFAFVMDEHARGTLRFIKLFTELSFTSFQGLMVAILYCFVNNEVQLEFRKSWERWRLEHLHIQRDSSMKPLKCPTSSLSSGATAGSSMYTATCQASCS

A word on the EC50: it is the concentration at which the effect is half-maximal.

`CCCCCCCCCCCCCCCC(=O)N[C@@H](CCC(=O)NCCCC[C@H](NC(=O)[C@H](CCCCN)NC(=O)[C@H](CC(=O)O)NC(=O)[C@H](CC(C)C)NC(=O)[C@H](C)NC(=O)[C@@H](NC(=O)[C@H](CO)NC(=O)[C@H](Cc1ccc(O)cc1)NC(=O)[C@H](CC(=O)O)NC(=O)[C@H](CO)NC(=O)[C@@H](NC(=O)[C@H](Cc1ccccc1)NC(=O)[C@@H](NC(=O)CNC(=O)[C@H](CCC(=O)O)NC(=O)C(C)(C)NC(=O)[C@@H](N)Cc1ccc(O)cc1)[C@@H](C)O)[C@@H](C)O)[C@@H](C)CC)C(=O)N[C@@H](C)C(=O)N[C@@H](CCC(N)=O)C(=O)N[C@@H](CCCNC(=N)N)C(=O)N[C@@H](C)C(=O)N[C@@H](Cc1ccccc1)C(=O)N[C@H](C(=O)N[C@@H](CC(N)=O)C(=O)N[C@@H](Cc1c[nH]c2ccccc12)C(=O)N[C@@H](CC(C)C)C(=O)N[C@H](C(=O)N[C@@H](C)C(=O)NC(C)(C)C(=O)N[C@@H](CCCCN)C(=O)N1CCC[C@H]1C(=O)N[C@@H](CO)C(=O)N[C@@H](CO)C(=O)NCC(=O)N[C@@H](C)C(=O)N1CCC[C@H]1C(=O)N1CCC[C@H]1C(=O)N1CCC[C@H]1C(=O)N[C@@H](CO)C(N)=O)C(C)C)C(C)C)C(=O)O` [Compound 36] returned an EC50 of 0.015 nM.

The values are drawn from US10100097B2, “GIP-GLP-1 dual agonist compounds and methods” (Zealand Pharma A/S, priority 2012, dated 2018).
